# In PubChem BioAssay AID2097 (Broad Institute, 2009):
# Chains of the proteins cited; added tags and fusions are not shown.
# UniProt P49841, whole entry: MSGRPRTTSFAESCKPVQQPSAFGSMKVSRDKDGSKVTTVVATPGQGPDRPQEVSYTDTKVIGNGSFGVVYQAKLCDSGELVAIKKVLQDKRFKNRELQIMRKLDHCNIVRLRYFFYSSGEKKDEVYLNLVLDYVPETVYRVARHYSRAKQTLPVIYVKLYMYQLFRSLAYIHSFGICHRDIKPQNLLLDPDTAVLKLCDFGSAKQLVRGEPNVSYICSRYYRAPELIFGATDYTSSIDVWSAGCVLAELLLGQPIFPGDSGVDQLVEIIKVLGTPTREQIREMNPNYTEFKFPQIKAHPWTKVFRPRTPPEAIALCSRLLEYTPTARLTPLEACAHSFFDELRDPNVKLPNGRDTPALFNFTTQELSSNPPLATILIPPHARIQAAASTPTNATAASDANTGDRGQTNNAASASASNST
# This is a selection; strong and weak results do not stand in their true shares. Active and inactive are the calls of the source.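 How the source made its calls: active means more than half of replicate wells score below -50%, meaning over 50% inhibition versus plate controls; inconclusive means some replicates but at most half score below -50%; inactive means no replicate scores below -50%.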
# Target: Glycogen synthase kinase-3 beta (Homo sapiens) (UniProt P49841)
# Assay: blockers of GSK3B enzyme activity – biochemical, cell-free homogeneous, HTS, primary screen (AID 2097);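 further: 0% = median DMSO wells and -100% = median GW8510 positive control wells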
# Conditions: GST-GSK3beta kinase, ADP-Glo luminescence, 60 min; at 10 µM; active compounds read low
row,Structure (SMILES),activity score (negative = inhibition)
1,O=[N+]([O-])c1cc([N+](=O)[O-])c(Nc2nnnn2CCO)c([N+](=O)[O-])c1,inactive: 3.57%
2,CCOC(=O)C(CC)C1=NC(C)(C)Cc2ccccc21.O=[N+]([O-])c1cc([N+](=O)[O-])c(O)c([N+](=O)[O-])c1 (stereo not drawn),inactive: -22.6%
3,O=[N+]([O-])c1cc([N+](=O)[O-])c(-c2cnn(-c3ccccc3)c2)c([N+](=O)[O-])c1,inactive: 0.264%
4,O=[N+]([O-])c1cc([N+](=O)[O-])c(-n2nnc3ccccc32)c([N+](=O)[O-])c1,inactive: 3.6%
5,CCOP(C)(=S)SCC(=O)NC(C)C(=O)O (stereo not drawn),inactive: 1.77%
6,O=[N+]([O-])c1cc([N+](=O)[O-])c(O)c([N+](=O)[O-])c1.c1ccc(Oc2ccncc2)cc1,inactive: -24.8%
7,CCOC(=O)c1ccc(NP(C)(=O)Oc2ccc(OC)cc2)cc1 (stereo not drawn),inactive: 3.24%
8,CP(=O)(Nc1ccccn1)Oc1ccc(Cl)cc1 (stereo not drawn),inactive: -1.25%
9,CP(=O)(Nc1ccc(SC(F)(F)F)cc1)Oc1ccc(Cl)cc1 (stereo not drawn),inactive: -6.65%
10,Cc1cccc(C)c1OP(C)(=O)Nc1ccc(SC(F)(F)F)cc1 (stereo not drawn),inactive: -23.9%
11,CP(=O)(Oc1ccccc1)OC(c1ccccc1)C(F)(F)F (stereo not drawn),inactive: -2.84%
12,CP(=O)(NC(=O)Nc1ccccc1)Oc1ccccc1 (stereo not drawn),inactive: 4.78%
13,CCc1ccc(OP(C)(=O)N2CCN(c3ccc([N+](=O)[O-])cc3)CC2)cc1 (stereo not drawn),inactive: 6.22%
14,Cc1cc(C)cc(OP(C)(=O)Nc2ccc(SC(F)(F)F)cc2)c1 (stereo not drawn),inactive: 0.847%
15,CP(=S)(Nn1cnnc1)Oc1ccccc1 (stereo not drawn),inactive: 5.59%
16,COc1ccccc1OP(C)(=O)Nc1ccccc1 (stereo not drawn),inactive: 0.863%
17,CP(=O)(Nc1ccccc1Br)Oc1ccccc1 (stereo not drawn),inactive: -1.94%
18,CCOC(=O)c1ccc(NP(C)(=O)Oc2ccccc2)cc1 (stereo not drawn),inactive: 2.13%
19,COc1ccccc1OP(C)(=O)Nc1ccc(C)cc1 (stereo not drawn),inactive: 0.588%
20,Cc1ccc(NP(C)(=O)Oc2ccccc2)c(C)c1 (stereo not drawn),inactive: 1.25%
21,COc1ccccc1OP(C)(=O)Nc1cc(Cl)ccc1C (stereo not drawn),inactive: 2.28%
22,COc1ccc(OP(C)(=O)Nc2cccc(F)c2)cc1 (stereo not drawn),inactive: -21.4%
23,Cc1cc(C)cc(OP(C)(N)=O)c1 (stereo not drawn),inactive: -0.452%
24,O=[N+]([O-])c1cc([N+](=O)[O-])c(Nc2cccnc2)c([N+](=O)[O-])c1,inactive: -2.17%
25,CC(C)(C)c1ccc(OP(C)(=O)Nc2ccc(SC(F)(F)F)cc2)cc1 (stereo not drawn),inactive: 2.61%
26,Cc1cccc(C)c1OP(C)(N)=O (stereo not drawn),inactive: -26.2%
27,O=[N+]([O-])c1ccc2c(c1)C=Nc1ccccc1O2,inactive: -2.82%
28,CCN(CC)CCCOC(=O)C(O)(c1ccccc1)c1ccccc1,inactive: 0.62%
